Assay results taken from ChEMBL document CHEMBL4619802, “Discovery and Characterization of Pure RhlR Antagonists against Pseudomonas aeruginosa Infections” (J Med Chem, 2020).

What was measured:
[1] = target: T1, HTH-type quorum-sensing regulator RhlR (Pseudomonas aeruginosa (strain ATCC 15692 / PAO1 / 1C / PRS 101 / LMG12228)) (UniProt P54292); assay: Antagonist activity at Pseudomonas aeruginosa RhlR expressed in Escherichia coli DH5alpha assessed as relative protein activity at 100 uM incubated for 1.5 hrs in presence of N-butyryl-L-homoserine lactone by luminescence reporter gene assay relative to control; design: scale not given: the % may be the effect or the level left
T1 sequence (whole entry): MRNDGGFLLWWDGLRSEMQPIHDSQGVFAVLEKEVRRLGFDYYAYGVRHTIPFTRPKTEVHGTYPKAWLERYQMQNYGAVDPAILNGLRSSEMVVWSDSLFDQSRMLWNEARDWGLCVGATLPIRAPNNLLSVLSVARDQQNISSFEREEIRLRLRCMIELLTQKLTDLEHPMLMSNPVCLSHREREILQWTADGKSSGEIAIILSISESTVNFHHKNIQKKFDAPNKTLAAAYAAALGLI
Outline: (§1)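 E. coli DH5α sdiA mutant carrying RhlR and rhlA::lacZ plasmids, at OD595 0.3 in LB. Compound given with BHL (10 µM per footnote) and 0.4% arabinose, 37 °C for 1.5 h. Relative RhlR activity is β-galactosidase luminescence over OD595, compared against DMSO control.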

[2] = target: T1, HTH-type quorum-sensing regulator RhlR (Pseudomonas aeruginosa (strain ATCC 15692 / PAO1 / 1C / PRS 101 / LMG12228)); assay: Modulation of RhlR in Pseudomonas aeruginosa assessed as reduction in biofilm formation at 10 uM incubated for 48 hrs under dynamic condition by measuring biofilm volume by 4',6-diamidino-2-phenylindole staining based confocal laser scanning microscopy
Outline: (§2)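 Drip-flow reactor with glass slides, fed continuously at 0.3 mL/min with AB medium containing 5% P. aeruginosa (OD595 1.0) plus compound, 37 °C for 48 h. Unattached cells removed with PBS. Biofilm stained with DAPI for 10 min, imaged by CLSM Z-stacks (ex 350/em 470 nm, 20× objective). Volume and thickness obtained with Comstat2.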

[3] = target: T1, HTH-type quorum-sensing regulator RhlR (Pseudomonas aeruginosa (strain ATCC 15692 / PAO1 / 1C / PRS 101 / LMG12228)); assay: Antagonist activity at Pseudomonas aeruginosa RhlR expressed in Escherichia coli DH5alpha assessed as relative protein activity at 10 uM incubated for 1.5 hrs in presence of N-butyryl-L-homoserine lactone by luminescence reporter gene assay relative to control; design: scale not given: the % may be the effect or the level left; outline: as §1
[4] = target: T1, HTH-type quorum-sensing regulator RhlR (Pseudomonas aeruginosa (strain ATCC 15692 / PAO1 / 1C / PRS 101 / LMG12228)); assay: Modulation of RhlR in Pseudomonas aeruginosa assessed as reduction in biofilm formation at 10 uM incubated for 48 hrs under dynamic condition by measuring biofilm thickness by 4',6-diamidino-2-phenylindole staining based confocal laser scanning microscopy; outline: as §2
[5] = target: T1, HTH-type quorum-sensing regulator RhlR (Pseudomonas aeruginosa (strain ATCC 15692 / PAO1 / 1C / PRS 101 / LMG12228)); assay: Agonist activity at Pseudomonas aeruginosa RhlR expressed in Escherichia coli DH5alpha assessed as relative protein activity at 100 uM incubated for 1.5 hrs by luminescence reporter gene assay relative to control
Outline: (§3)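 E. coli DH5α sdiA mutant carrying pJN105R (RhlR) and pSC11 (rhlA::lacZ). Grown 2 h at 37 °C in LB with gentamicin and ampicillin to OD595 0.3, then given compound alone plus 0.4% arabinose, 37 °C for 1.5 h. β-galactosidase luminescence divided by OD595 gives relative RhlR activity. P values versus DMSO control.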

[6] = target: T1, HTH-type quorum-sensing regulator RhlR (Pseudomonas aeruginosa (strain ATCC 15692 / PAO1 / 1C / PRS 101 / LMG12228)); assay: Agonist activity at Pseudomonas aeruginosa RhlR expressed in Escherichia coli DH5alpha assessed as relative protein activity at 1000 uM incubated for 1.5 hrs by luminescence reporter gene assay relative to control; outline: as §3

CCCC(=O)C#Cc1ccc(F)c(F)c1
Activity [1]: 12%
Activity [2]: 11.3 um3/um2
Activity [3]: 31%
Activity [4]: 19.5 µm
Activity [5]: 4%
Activity [6]: 4%

CCCCC[C@H](O)CC(=O)CCc1ccc(O)c(OC)c1 [GINGEROL]
Activity [1]: 75%
Activity [2]: 18.7 um3/um2
Activity [4]: 20.4 µm
Activity [5]: 3%
Activity [6]: 5%

CCCCCC(O)CC(=O)CCc1ccc(O)c(OC)c1 (configuration not stated)
Activity [5]: 4%
